{
  "sequences": {"note": "Amino acid sequences for entries named in this document (tags omitted).", "UniProt P02768, whole entry": "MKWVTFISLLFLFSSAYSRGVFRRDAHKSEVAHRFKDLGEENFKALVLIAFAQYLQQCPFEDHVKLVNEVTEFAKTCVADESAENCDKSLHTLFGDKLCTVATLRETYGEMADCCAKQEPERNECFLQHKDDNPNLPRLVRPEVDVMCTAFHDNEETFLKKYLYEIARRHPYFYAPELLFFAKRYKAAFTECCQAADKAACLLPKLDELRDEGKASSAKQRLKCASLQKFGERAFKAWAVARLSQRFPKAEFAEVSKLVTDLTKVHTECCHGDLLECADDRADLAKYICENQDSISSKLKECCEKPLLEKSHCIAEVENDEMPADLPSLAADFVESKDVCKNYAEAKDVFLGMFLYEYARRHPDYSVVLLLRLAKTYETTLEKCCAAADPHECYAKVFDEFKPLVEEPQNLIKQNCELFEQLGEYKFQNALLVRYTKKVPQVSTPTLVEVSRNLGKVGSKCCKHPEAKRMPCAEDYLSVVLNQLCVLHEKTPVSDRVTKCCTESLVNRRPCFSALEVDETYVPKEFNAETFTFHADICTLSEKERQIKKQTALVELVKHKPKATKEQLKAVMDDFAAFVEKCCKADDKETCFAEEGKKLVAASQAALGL"},
  "source": "ChEMBL document CHEMBL1127496",
  "about": "“The structural basis of camptothecin interactions with human serum albumin: impact on drug stability” (J Med Chem, 1994)",
  "key": {"[1]": {"target": "T1, Albumin (Homo sapiens, UniProt P02768)", "test": "Association constant for the binding of the carboxylate form to human serum albumin;(M aa)e-1", "in_short": "(§1)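 Fluorescence lifetime titration in PBS, pH 7.40 ± 0.05, 37 °C. Total drug 20 μM, lactone or carboxylate form (carboxylate stock made by mixing DMSO stock 1:1 with PBS pH 10), titrated with varying HSA. Phase-shift lifetimes at 30 MHz modulation. Free fraction (τ − τB)/(τF − τB) plotted against log amino-acid residue concentration. K and n obtained by nonlinear least-squares fit to K = [Db]/([Df][aa]^n).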"}, "[2]": {"target": "T1, Albumin", "test": "Association constant for the binding of the lactone form to human serum albumin;(M aa)e-1", "in_short": "as §1"}, "[3]": {"target": "T1, Albumin", "test": "Binding parameter of the lactone form to human serum albumin; n value", "in_short": "as §1"}, "[4]": {"target": "T1, Albumin", "test": "Binding parameter of the carboxylate form to human serum albumin; n value", "in_short": "as §1"}},
  "data": [
    {"smiles": "CCc1c2c(nc3ccc(O)cc13)-c1cc3c(c(=O)n1C2)COC(=O)[C@]3(O)CC", "note": "[7-ETHYL-10-HYDROXYCAMPTOTHECIN]", "values": [
      {"measurement": "K", "setting": "[1]", "result": "150 1/Maa"},
      {"measurement": "K", "setting": "[2]", "result": "640 1/Maa"},
      {"measurement": "Activity", "setting": "[3]", "result": 1.7},
      {"measurement": "Activity", "setting": "[4]", "result": 1.4}
    ]}
  ]
}
